How the values were obtained:
Assay type in all cases: in vitro ADME
Conditions in all cases: 37° C., 0.1 mg/ml, mean n=3
[1] = In vitro stability test in human plasma (heparin)
Protocol: (§1) The stability of peptides is analysed in different plasma and serum types. The peptides are incubated at 37° C. in plasma and samples taken at approx. 9 regular intervals between t=0 and t=156 min are analysed by HPLC.
This is done by subsequent injections of the drug, plasma, and a co-injection with the drug and the plasma, followed by optimisation of the LC method parameters until a satisfactory separation is obtained. Three parallel experiments are performed for each plasma type:100 μl of peptide is mixed with 900 μl plasma at t=0 and incubated at 37° C. (drug-plasma mixture conc. 0.1 mg/ml). Samples of 100 μl of the drug-plasma mixture are removed at appropriate intervals and the degradation stopped by precipitation of the sample with 10 μl MeCN:TFA 50:50 v/v. A control plasma sample without the drug treated in the same manner is also taken. The plasma samples are centrifuged for 15 min. at 12,000 rpm (Eppendorf centrifuge) at ambient temperature. The resulting supernatant solution is transferred to 300 μl HP autosamler vials and analyzed by HPLC. HPLC analysis are performed as follows: • Compound CE1 • Column: Vydac 218MS52, 250×2.1 mm, flow: 0.200 mL/min. Temp.: 40° C. • Solvent: MeCN/MQW/TFA (0.1%). Run time: 25 min. • Inj.vol.:15 μL. Detection: DAD1 A, 214.5 nm • Compound CE2 • Column: Kromasil KR100-10C8, 250×4.6 mm, flow: 1 mL/min. Temp.: 40° C. • Solvent: MeCN/MQW/TFA (0.1%). Run time: 20 min. • Inj.vol.:25 μL. Detection: VWD 1 A, 214.5 nm. • Except for rabbit serum: DAD1 A, 214.5 nm • Except for rat plasma: Solvent: MeOH/MQW/TFA (0.1%). Detection:VWD1 A, 210 nm • Compound CE3 • Column: Vydac 218MS52, 250×2.1 mm, flow: 0.200 mL/min. Temp.: 40° C. • Solvent: MeCN/MQW/TFA (0.1%). Run time: 35 min. • Inj.vol.:15 μL. Detection: DAD1 A, 214.5 nm • Compound 3 • Column: Kromasil KR100-10C8, 250×4.6 mm, flow: 1 mL/min. […]
(§2) The samples are analyzed in the following order: blank, the peptide at 0.1 mg/mL, the plasma without the peptide, the three parallel samples for t=0, the three parallel samples for t=5 min. the three parallel samples for t=10 min. etc. […]

[2] = In vitro stability test in human serum
Protocol: as §1
This is done by subsequent injections of the drug, plasma, and a co-injection with the drug and the plasma, followed by optimisation of the LC method parameters until a satisfactory separation is obtained. Three parallel experiments are performed for each plasma type:100 μl of peptide is mixed with 900 μl plasma at t=0 and incubated at 37° C. (drug-plasma mixture conc. 0.1 mg/ml). Samples of 100 μl of the drug-plasma mixture are removed at appropriate intervals and the degradation stopped by precipitation of the sample with 10 μl MeCN:TFA 50:50 v/v. A control plasma sample without the drug treated in the same manner is also taken. The plasma samples are centrifuged for 15 min. at 12,000 rpm (Eppendorf centrifuge) at ambient temperature. The resulting supernatant solution is transferred to 300 μl HP autosamler vials and analyzed by HPLC. […]
as §2

[3] = In vitro stability test in rabbit plasma (heparin)
Protocol: as §1
This is done by subsequent injections of the drug, plasma, and a co-injection with the drug and the plasma, followed by optimisation of the LC method parameters until a satisfactory separation is obtained. Three parallel experiments are performed for each plasma type:100 μl of peptide is mixed with 900 μl plasma at t=0 and incubated at 37° C. (drug-plasma mixture conc. 0.1 mg/ml). Samples of 100 μl of the drug-plasma mixture are removed at appropriate intervals and the degradation stopped by precipitation of the sample with 10 μl MeCN:TFA 50:50 v/v. A control plasma sample without the drug treated in the same manner is also taken. The plasma samples are centrifuged for 15 min. at 12,000 rpm (Eppendorf centrifuge) at ambient temperature. The resulting supernatant solution is transferred to 300 μl HP autosamler vials and analyzed by HPLC. HPLC analysis are performed as follows: • Compound CE1 • Column: Vydac 218MS52, 250×2.1 mm, flow: 0.200 mL/min. Temp.: 40° C. • Solvent: MeCN/MQW/TFA (0.1%). Run time: 25 min. • Inj.vol.:15 μL. Detection: DAD1 A, 214.5 nm • Compound CE2 • Column: Kromasil KR100-10C8, 250×4.6 mm, flow: 1 mL/min. Temp.: 40° C. • Solvent: MeCN/MQW/TFA (0.1%). Run time: 20 min. • Inj.vol.:25 μL. Detection: VWD 1 A, 214.5 nm. • Except for rabbit serum: DAD1 A, 214.5 nm • Except for rat plasma: Solvent: MeOH/MQW/TFA (0.1%). Detection:VWD1 A, 210 nm • Compound CE3 • Column: Vydac 218MS52, 250×2.1 mm, flow: 0.200 mL/min. Temp.: 40° C. • Solvent: MeCN/MQW/TFA (0.1%). Run time: 35 min. • Inj.vol.:15 μL. Detection: DAD1 A, 214.5 nm • Compound 3 • Column: Kromasil KR100-10C8, 250×4.6 mm, flow: 1 mL/min. Temp.: 40° C. • Solvent: MeCN/MQW/TFA (0.1%). Run time: 25 min. • Inj.vol.:25 μL. Detection:DAD1 A, 214.5 nm • Compound 2 • Column: Luna 3u C18(2), 150×2 mm, flow: 0.250 mL/min.Temp.: 40° C. • Solvent: MeOH/MQW/HFBA (0.02%). Run time: 25 min. • Inj.vol.: 25 μL. Detection:DAD1 A, 214.5 nm. • Except for human plasma: Column: Luna 5u C18, 150×2 mm, Temp.: 10° C. • Except for human serum: Column: Kromasil KR100-10C8, 250×4.6 mm, • flow: 1 mL/min. Solvent: MeCN/MQW/TFA (0.1%). • Compound 27 • Column: Kromasil KR100-10C8, 250×4.6 mm, flow: 1 mL/min. Temp.: 40° C. • Solvent: MeCN/MQW/TFA (0.1%). Run time: 20 and 25 min. • Inj.vol.: 25 μL. Detection: VWD1 A, 214 nm • Compound 49 • Column: Kromasil KR100-10C8, 250×4.6 mm, flow: 1 mL/min. Temp.: 40° C. • Solvent: MeCN/MQW/TFA (0.1%). Run time: 25 min. • Inj.vol.: 25 μL. Detection: DADI A, 214.5 nm • Compound 48 180 • Column: Kromasil KR100-10C8, 250×4.6 mm, flow: 1 mL/min. Temp.: 40° C. • Solvent: MeCN/MQW/TFA (0.1%). Run time: 25 min. • Inj.vol.: 25 μL. Detection: DAD1 A, 214.5 nm
The samples are analyzed in the following order: blank, the peptide at 0.1 mg/mL, the plasma without the peptide, the three parallel samples for t=0, the three parallel samples for t=5 min. the three parallel samples for t=10 min. etc. And finally the three parallel samples for t=0 are repeated to make sure that there have been no degradation or other failure during the analyses. The sample concentrations (peak height in mAU) are plotted vs. time and fitted to a function describing a mono exponential decay (Excel). The half-life of the peptides in the different types of plasma are presented in Table 1 as mean (n=3)±standard deviation.

Measured: T1/2

Ac-D-Tyr-D-Pro-D-4Hyp-Gly-D-Ala-Gly-NH2 [Compound 2]
>5 h: all assays above

Source: patent US7250397B2, “Antiarrhythmic peptides” (Zealand Pharma A/S, priority 2000, dated 2007)
